Test [1] deals with T1, 293T cells expressing an HLA-A11:01 protein (Homo sapiens, UniProt P04439, A114D/D185E/E176A/F33Y/L180Q/S129P/T187R).
T1 construct: expressed in transfected cells
The test is classed as cell-based.

The target in the next test is HLA-A03:01 (Homo sapiens, UniProt P04439). The test is classed as binding.
For a further test, the target named is HLA-A11:01 (Homo sapiens, UniProt P04439, A114D/D185E/E176A/F33Y/L180Q/S129P/T187R). Format: binding.

Regarding VVVGACGVGK, in test [1], the “Detection of HLA-presented peptide by mass spectrometry” value is on record as “detected by mass spectrometry”. Further, the “Measured stability” value with HLA-A03:01 was found to be 2.5 h; with HLA-A11:01, 15.7 h.

These data come from US12246067B2, “Neoantigens and uses thereof” (priority 2018, dated 2025).
